Test results reported in US20120270905A1, “FLUORINATED 2,6-DIALKYL-3,5-DICYANO-4-(1H-INDAZOL-5-YL)-1,4-DIHYDROPYRIDINES AND METHODS OF USE THEREOF” (BAYER PHARMA AKTIENGESELLSCHAFT, priority 2009, published 2012).

Protein sequences, listed by entry. Tags and fused reporters are not part of them. Residues count along the entry.
UniProt P08581, 25-1390 limits assumed: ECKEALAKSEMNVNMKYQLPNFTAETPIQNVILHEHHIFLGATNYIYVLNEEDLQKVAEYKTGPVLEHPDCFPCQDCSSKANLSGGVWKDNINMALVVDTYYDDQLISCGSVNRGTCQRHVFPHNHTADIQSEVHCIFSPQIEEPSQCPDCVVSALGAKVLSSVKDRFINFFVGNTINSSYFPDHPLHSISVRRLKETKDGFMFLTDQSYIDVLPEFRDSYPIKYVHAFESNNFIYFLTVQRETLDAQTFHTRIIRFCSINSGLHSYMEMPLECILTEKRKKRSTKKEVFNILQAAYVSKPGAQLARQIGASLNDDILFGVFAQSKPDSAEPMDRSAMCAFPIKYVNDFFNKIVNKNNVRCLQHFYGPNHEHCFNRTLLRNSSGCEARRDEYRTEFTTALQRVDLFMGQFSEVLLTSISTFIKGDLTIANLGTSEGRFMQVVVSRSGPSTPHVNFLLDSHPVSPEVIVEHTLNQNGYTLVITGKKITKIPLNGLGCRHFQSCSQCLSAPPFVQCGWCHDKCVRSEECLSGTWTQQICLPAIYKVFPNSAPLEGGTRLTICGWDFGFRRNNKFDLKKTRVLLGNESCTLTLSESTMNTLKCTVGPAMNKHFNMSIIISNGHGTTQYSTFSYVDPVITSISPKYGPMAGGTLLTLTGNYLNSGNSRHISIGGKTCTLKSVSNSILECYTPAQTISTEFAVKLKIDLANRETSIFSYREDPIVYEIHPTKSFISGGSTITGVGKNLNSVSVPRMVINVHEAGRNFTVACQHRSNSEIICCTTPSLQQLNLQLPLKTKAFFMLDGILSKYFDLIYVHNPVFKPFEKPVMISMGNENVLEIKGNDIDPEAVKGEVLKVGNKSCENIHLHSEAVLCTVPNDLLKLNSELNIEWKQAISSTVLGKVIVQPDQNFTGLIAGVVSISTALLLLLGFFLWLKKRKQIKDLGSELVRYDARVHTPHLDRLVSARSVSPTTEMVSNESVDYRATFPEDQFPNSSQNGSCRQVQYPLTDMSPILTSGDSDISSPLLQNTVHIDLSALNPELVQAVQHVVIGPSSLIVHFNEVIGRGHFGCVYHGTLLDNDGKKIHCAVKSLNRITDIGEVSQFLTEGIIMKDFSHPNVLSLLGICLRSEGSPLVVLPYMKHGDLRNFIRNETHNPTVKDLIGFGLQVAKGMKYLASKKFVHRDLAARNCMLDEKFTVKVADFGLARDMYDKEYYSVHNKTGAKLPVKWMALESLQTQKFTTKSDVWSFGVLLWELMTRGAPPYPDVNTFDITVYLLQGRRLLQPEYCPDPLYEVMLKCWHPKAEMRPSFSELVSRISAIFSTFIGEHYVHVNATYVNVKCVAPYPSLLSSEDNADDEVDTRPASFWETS
UniProt P08581, 960-1390 limits assumed: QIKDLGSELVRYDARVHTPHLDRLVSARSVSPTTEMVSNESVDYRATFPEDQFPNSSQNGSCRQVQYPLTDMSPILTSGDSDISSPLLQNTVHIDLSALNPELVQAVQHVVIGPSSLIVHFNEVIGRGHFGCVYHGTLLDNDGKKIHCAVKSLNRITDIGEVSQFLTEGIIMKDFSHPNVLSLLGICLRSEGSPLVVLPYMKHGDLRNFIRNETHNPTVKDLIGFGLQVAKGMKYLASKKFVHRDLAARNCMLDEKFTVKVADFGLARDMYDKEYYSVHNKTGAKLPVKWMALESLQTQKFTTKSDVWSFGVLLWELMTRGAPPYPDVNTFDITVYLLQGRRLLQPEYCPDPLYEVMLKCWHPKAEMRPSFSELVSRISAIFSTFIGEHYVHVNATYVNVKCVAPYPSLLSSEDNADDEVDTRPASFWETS

How the values were obtained:
[1] = molecular target: recombinant kinase domain of the human c-Met (amino acids 960-1390) (Homo sapiens, UniProt P08581); assay: c-Met receptor tyrosine kinase homogeneous time-resolved fluorescence assay (alternative format); conditions: HTRF format; ATP 10 μM, 30 min at 22° C.
Text: c-Met Receptor Tyrosine Kinase Homogeneous Time-Resolved Fluorescence Assay (Alternative Format):
The N-terminally His6-tagged recombinant kinase domain of the human c-Met (amino acids 960-1390), expressed in insect cells (SF21) and purified by Ni-NTA affinity chromatography and consecutive size exclusion chromatography (Superdex 200), is used. Alternatively, commercially available c-Met (Millipore) can be used. As substrate for the kinase reaction, the biotinylated poly-Glu,Tyr (4:1) copolymer (#61GT0BLC, Cis Biointernational, Marcoule, France) is used.
For the assay, 50 nL of a 100-fold concentrated solution of the test compound in DMSO is pipetted into a black low-volume 384-well microtiter plate (Greiner Bio-One, Frickenhausen, Germany). […]
The resulting mixture is incubated for 1 h at 22° C. to allow the binding of the biotinylated phosphorylated peptide to the streptavidine-XLent and the PT66-Eu-chelate. Subsequently, the amount of phosphorylated substrate is evaluated by measurement of the resonance energy transfer from the PT66-Eu-chelate to the streptavidine-XLent. Therefore, the fluorescence emissions at 620 nm and 665 nm after excitation at 350 nm are measured in an HTRF reader, e.g. Rubystar (BMG Lab-technologies, Offenburg, Germany) or Viewlux (Perkin-Elmer). […]

[2] = molecular target: Recombinant human c-Met protein (Homo sapiens, UniProt P08581); assay: c-Met receptor tyrosine kinase activity assay (NADH read-out); conditions: c-Met 30 nM, ATP 30 μM, 100 min at 32° C.
Description: c-Met Receptor Tyrosine Kinase Activity Assay (NADH Read-Out):
Recombinant human c-Met protein (Invitrogen, Carlsbad, Calif., USA) is used. As substrate for the kinase reaction the peptide KKKSPGEYVNIEFG (JPT, Germany) is used. For the assay, 1 μL of a 51-fold concentrated solution of the test compound in DMSO is pipetted into a white 384-well microtiter plate (Greiner Bio-One, Frickenhausen, Germany). 25 μL of a solution of c-Met (final concentration 30 nM) and pyruvate kinase/lactate dehydrogenase (Roche Diagnostics, Mannheim, Germany; final concentration 8 mg/L) in assay buffer [3-(N-morpholino)propanesulfonic acid (MOPS), 50 mM, pH 7; MgCl2, 10 mM; bovine serum albumin (BSA), 0.01%; Triton X 100, 0.01%; DTT, 2 mM] are added, and the mixture is incubated for 5 min at room temperature. […]
Subsequently, the amount of phosphorylated substrate is evaluated by measurement of the decrease of NADH fluorescence. Therefore, the fluorescence emissions at 465 nm after excitation at 340 nm is measured in a fluorescence reader, e.g. Tecan Ultra (Tecan, Männedorf, Switzerland). […]

Human Caco-2 cells = assay: Caco-2 permeability assay; conditions: apical to basolateral; test concentration 2 μM; 2 h at 37° C.
Text: Caco-2 Permeability Assay:
The in vitro permeation of a test compound across a Caco-2 cell monolayer is a well-established assay system to predict the permeability from the gastro-intestinal tract [cf. P. Artursson and J. Karlsson: Correlation between oral drug absorption in humans and apparent drug permeability coefficients in human intestinal epithelial (Caco-2) cells, Biochem. Biophys. 175 (3), 880-885 (1991)]. The permeability of the compounds of the present invention in such Caco-2 cells was deter-mined as described below:
Human Caco-2 cells (ACC No. 169, DSMZ, German Collection of Microorganisms and Cell Cultures, Braunschweig, Germany) are seeded on 24-well insert plates and are allowed to grow for 14-16 days. For permeability studies, the test compounds are dissolved in DMSO and diluted to the final test concentration of 2 μM with transport buffer [Hanks' Buffered Salt Solution, Gibco/Invitrogen, further supplemented with glucose (final concentration 19.9 mM) and HEPES (final concentration 9.8 mM)]. […] Samples are analyzed by LC-MS/MS, and the apparent permeability coefficients are calculated. Lucifer Yellow permeability is assayed for each cell monolayer to ensure cell monolayer integrity, and the permeability of Atenolol (low permeability marker) and Sulfasalazine (marker for active excretion) is determined for each batch as quality control. […]

Question: What does the source list for `CC1=C(C#N)C(c2ccc3[nH]ncc3c2)C(C#N)=C(C)N1`?
Answer: IC50 [1]: 2 nM; IC50 [2]: 8 nM; Caco-2 permeability PappA-B (Human Caco-2 cells): 124 nm/s
